The values that follow come from ChEMBL document CHEMBL4342416, “Indole: A privileged scaffold for the design of anti-cancer agents” (Eur J Med Chem, 2019).

Structures are written as SMILES.

The assay can be described thus: Inhibition of bovine brain microtubule polymerization incubated for 60 mins by spectrophotometric method. The arrangement: species or system Bos taurus.

`CC[C@]1(O)C[C@@H]2CN(CCc3c([nH]c4ccccc34)[C@@](C(=O)OC)(c3cc4c(cc3OC)N(C)[C@H]3[C@@](O)(C(=O)OC)[C@H](OC(C)=O)[C@]5(CC)C=CCN6CC[C@]43[C@@H]65)C2)C1` [VINBLASTINE] gave a Ki of 178 nM. This counts as sub-micromolar.
